# Measurements published in PubChem BioAssay AID1715 (Vanderbilt High Throughput Screening Facility, 2009).
# Amino acid sequences for entries named in this document (tags omitted).
# UniProt Q9H2X9, whole entry: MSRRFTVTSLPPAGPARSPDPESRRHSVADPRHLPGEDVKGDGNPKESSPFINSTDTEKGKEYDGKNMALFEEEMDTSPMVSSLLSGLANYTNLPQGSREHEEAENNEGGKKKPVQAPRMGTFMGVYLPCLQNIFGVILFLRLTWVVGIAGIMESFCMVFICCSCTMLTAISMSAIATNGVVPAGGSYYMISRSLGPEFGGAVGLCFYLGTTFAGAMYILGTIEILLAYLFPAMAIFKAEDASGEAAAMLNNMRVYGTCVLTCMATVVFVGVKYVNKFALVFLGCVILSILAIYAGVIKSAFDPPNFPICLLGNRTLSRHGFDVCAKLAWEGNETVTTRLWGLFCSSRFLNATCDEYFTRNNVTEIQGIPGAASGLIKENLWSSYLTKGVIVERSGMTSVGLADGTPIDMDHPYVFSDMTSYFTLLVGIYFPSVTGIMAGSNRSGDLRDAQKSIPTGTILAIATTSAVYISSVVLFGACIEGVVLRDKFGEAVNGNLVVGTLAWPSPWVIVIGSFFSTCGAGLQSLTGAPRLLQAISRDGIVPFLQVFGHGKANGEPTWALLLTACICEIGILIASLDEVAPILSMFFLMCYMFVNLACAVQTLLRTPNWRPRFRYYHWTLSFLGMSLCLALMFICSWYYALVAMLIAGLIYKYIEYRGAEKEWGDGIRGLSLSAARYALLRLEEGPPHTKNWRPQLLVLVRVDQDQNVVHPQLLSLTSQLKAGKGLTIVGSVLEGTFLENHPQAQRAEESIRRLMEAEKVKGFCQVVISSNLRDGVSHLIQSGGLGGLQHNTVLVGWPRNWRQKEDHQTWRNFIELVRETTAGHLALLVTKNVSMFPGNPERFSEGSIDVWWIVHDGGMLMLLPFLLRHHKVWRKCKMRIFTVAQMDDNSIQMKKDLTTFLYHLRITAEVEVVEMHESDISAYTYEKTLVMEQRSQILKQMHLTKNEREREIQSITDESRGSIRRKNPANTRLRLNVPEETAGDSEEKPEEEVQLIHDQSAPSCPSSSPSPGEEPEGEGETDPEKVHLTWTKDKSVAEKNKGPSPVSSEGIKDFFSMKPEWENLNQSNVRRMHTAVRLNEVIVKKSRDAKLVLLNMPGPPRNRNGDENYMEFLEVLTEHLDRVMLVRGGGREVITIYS
# Only a part is listed here, and it is no random draw. Inconclusive results are not listed. The source made the active and inactive calls.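 The calls were made as follows: active = thallium flux slope more than 3 SD above or below the plate's solvent-only control mean, mostly below; inconclusive = the two repeat wells disagreed; inactive = no significant shift from solvent-only controls.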
# Target: Solute carrier family 12 member 5 (Homo sapiens) (UniProt Q9H2X9)
# Assay: retest of KCC2 transport modulation, ouabain-free – cell-based, HEK293 KCC2, thallium flux, FluoZin2, secondary assay 2, confirmation (AID 1715);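 also: raw slope with 0.1% DMSO as baseline and bumetanide as block control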
# Conditions: HEK293-KCC2, thallium flux FluoZin2 fluorescence; at 10 µM; actives lie on both sides; F/F0 rise rate, 10–20 s post-thallium
row,Structure (SMILES),normalized thallium flux
1,CP(=O)(Nc1ccccc1)Oc1ccc(F)cc1 (stereo unspecified),inactive: 0.0306
